Reference: US20200010482A1, “INHIBITORS OF BETA SECRETASE” (Janssen Pharmaceutica NV, priority 2017, published 2020)

Sequences of proteins named here, by UniProt entry; tags and fusion partners are left off. Residues count along the entry.
UniProt Q9Y5Z0, 63-518 limits assumed: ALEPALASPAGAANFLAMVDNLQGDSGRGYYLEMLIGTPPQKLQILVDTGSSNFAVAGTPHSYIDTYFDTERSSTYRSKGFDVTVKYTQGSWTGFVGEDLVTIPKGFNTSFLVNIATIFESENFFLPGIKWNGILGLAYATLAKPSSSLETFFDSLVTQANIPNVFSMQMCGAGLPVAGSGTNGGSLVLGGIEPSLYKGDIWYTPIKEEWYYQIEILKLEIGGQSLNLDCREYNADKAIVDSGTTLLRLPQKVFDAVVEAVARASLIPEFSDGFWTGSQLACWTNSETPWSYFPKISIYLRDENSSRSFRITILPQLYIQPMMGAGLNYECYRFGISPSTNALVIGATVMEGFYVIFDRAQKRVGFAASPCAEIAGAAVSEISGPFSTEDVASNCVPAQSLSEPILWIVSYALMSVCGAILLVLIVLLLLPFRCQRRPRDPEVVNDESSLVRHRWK

How the values were obtained:
[1] = system: Abeta 1-42 produced and secreted by SKNBE2 cells expressing hAPP695; assay: Cellular αLisa assay in SKNBE2 cells, Abeta 1-42; conditions: SKNBE2 cells expressing hAPP695, 18 hours incubation
Method: In two αLisa assays the levels of Abeta total and Abeta 1-42 produced and secreted into the medium of human neuroblastoma SKNBE2 cells are quantified. The assay is based on the human neuroblastoma SKNBE2 expressing the wild type Amyloid Precursor Protein (hAPP695). The compounds are diluted and added to these cells, incubated for 18 hours and then measurements of Abeta 1-42 and Abeta total are taken. Abeta total and Abeta 1-42 are measured by sandwich αLisa. αLisa is a sandwich assay using biotinylated antibody AbN/25 attached to streptavidin coated beads and antibody Ab4G8 or cAb42/26 conjugated acceptor beads for the detection of Abeta total and Abeta 1-42 respectively. In the presence of Abeta total or Abeta 1-42, the beads come into close proximity. The excitation of the donor beads provokes the release of singlet oxygen molecules that trigger a cascade of energy transfer in the acceptor beads, resulting in light emission. Light emission is measured after 1 hour incubation (excitation at […] and emission at 615 nm).
A best-fit curve is fitted by a minimum sum of squares method to the plot of % Controlmin versus compound concentration. From this an IC50 value (inhibitory concentration causing 50% inhibition of activity) can be obtained. • LC=Median of the low control values=Low control: cells preincubated without compound, without biotinylated Ab in the αLisa • HC=Median of the High control values=High Control: cells preincubated without compound
(§1) % Effect=100−[(sample−LC)/(HC−LC)*100]
(§2) % Control=(sample/HC)*100
(§3) % Controlmin=(sample−LC)/(HC−LC)*100

BACE2 = BACE2 (Homo sapiens, UniProt Q9Y5Z0); assay: BACE2 biochemical FRET based assay; conditions: recombinant BACE2 0.4 μg/ml, 10 μM substrate, 450 min, pH 5.0
Source text: This assay is a Fluorescence Resonance Energy Transfer Assay (FRET) based assay. The substrate for this assay contains the ‘Swedish’ Lys-Met/Asn-Leu mutation of the amyloid precursor protein (APP) beta-secretase cleavage site. This substrate also contains two fluorophores: (7-methoxycoumarin-4-yl) acetic acid (Mca) is a fluorescent donor with excitation wavelength at 320 nm and emission at 405 nm and 2,4-Dinitrophenyl (Dnp) is a proprietary quencher acceptor. […] Upon cleavage by the beta-secretase, the fluorophore Mca is separated from the quenching group Dnp, restoring the full fluorescence yield of the donor. The increase in fluorescence is linearly related to the rate of proteolysis.
Briefly in a 384-well format recombinant BACE2 protein in a final concentration of 0.4 μg/ml is incubated for 450 minutes at room temperature with 10 μM substrate in incubation buffer (50 mM Citrate buffer pH 5.0, 0.05% PEG, no DMSO) in the absence or presence of compound. Next the amount of proteolysis is directly measured by fluorescence measurement at T=0 and T=450 (excitation at 320 nm and emission at 405 nm). Results are expressed in RFU (Relative Fluorescence Units), as difference between T450 and TO.
A best-fit curve is fitted by a minimum sum of squares method to the plot of % Controlmin versus compound concentration. From this an IC50 value (inhibitory concentration causing 50% inhibition of activity) can be obtained. • LC=Median of the low control values=Low control: Reaction without enzyme • HC=Median of the High control values=High Control: Reaction with enzyme
as §1, §2, §3

Structure (SMILES)	BIOCHEMICAL FRET BASED ASSAY pIC50 (BACE2)	BIOCHEMICAL FRET BASED ASSAY pIC50 (BACE2; tested form: formate)	CELLULAR αLISA ASSAY IN SKNBE2 CELLS ABETA 42 PIC50 [1]	CELLULAR αLISA ASSAY IN SKNBE2 CELLS ABETA 42 PIC50 ([1]; tested form: formate)	further results
COc1ncc(-c2ccc(F)cc2C)c2c1C[C@]1(c3cc(OCC4CCOCC4)ccc3F)N=C(N)SC[C@@H]1C2		6.48		6.89	
COc1ncc(-c2c(C)noc2C)c2c1C[C@]1(c3cc(OCC4CCOCC4)ccc3F)N=C(N)SC[C@@H]1C2		5.2		6.81	
COc1ncc(-c2c(C)noc2C)c2c1C[C@]1(c3cc(OCc4ncccn4)ccc3F)N=C(N)SC[C@@H]1C2		6.65		7.1	
COc1ncc(-c2cc(C)nc3c2CCCC3)c2c1C[C@]1(c3ccc(F)cc3F)N=C(N)SC[C@@H]1C2	<5		7.44		
COc1ccc(F)c(-c2cnc(OC)c3c2C[C@H]2CSC(N)=N[C@@]2(c2ccc(F)cc2F)C3)c1					CELLULAR αLISA ASSAY IN SKNBE2 CELLS ABETA 42 PIC50 ([1]; tested form: free base): 7.64; BIOCHEMICAL FRET BASED ASSAY pIC50 (BACE2; tested form: free base): 7.45
COc1ncc(-c2c(C)noc2C)c2c1C[C@]1(c3cc(OCC4CC4)ccc3F)N=C(N)SC[C@@H]1C2		5.69		5.57	

The next lines start with results.

BIOCHEMICAL FRET BASED ASSAY pIC50 (BACE2)	BIOCHEMICAL FRET BASED ASSAY pIC50 (BACE2; tested form: formate)	Structure (SMILES)	CELLULAR αLISA ASSAY IN SKNBE2 CELLS ABETA 42 PIC50 [1]	CELLULAR αLISA ASSAY IN SKNBE2 CELLS ABETA 42 PIC50 ([1]; tested form: formate)	further results
5.76		COc1ncc(-c2c(C)noc2C)c2c1C[C@]1(c3ccc(F)cc3F)N=C(N)SC[C@@H]1C2	7.78		
6.3		COc1ccccc1-c1cnc(OC)c2c1C[C@H]1CSC(N)=N[C@@]1(c1ccc(F)cc1F)C2	7.22		
